Data: PubChem BioAssay AID729 (The Scripps Research Institute Molecular Screening Center, 2007)
The list shows a part of the results, in another mix than the full data. Active and inactive are the calls of the source. Cut-off read from the data, not from the text of the source: active = activation above about 16%; inactive = the rest.

By UniProt entry, the sequences of proteins in these tests, tags left out. Where a name states a change or a piece, a line headed by the entry shows the natural chain unless it says otherwise.
UniProt O95136: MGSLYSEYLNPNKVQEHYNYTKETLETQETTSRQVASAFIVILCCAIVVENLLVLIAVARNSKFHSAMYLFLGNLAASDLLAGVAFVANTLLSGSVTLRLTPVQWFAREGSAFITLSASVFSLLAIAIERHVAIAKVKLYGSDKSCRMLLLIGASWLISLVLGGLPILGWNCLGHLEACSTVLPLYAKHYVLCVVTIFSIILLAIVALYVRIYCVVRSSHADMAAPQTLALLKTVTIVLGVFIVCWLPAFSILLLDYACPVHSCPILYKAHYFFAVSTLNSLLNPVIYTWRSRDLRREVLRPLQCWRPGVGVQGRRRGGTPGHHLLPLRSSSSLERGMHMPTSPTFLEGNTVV

Each compound was assayed against Sphingosine 1-phosphate receptor 2 (Homo sapiens) (UniProt O95136) (assay: S1P2 receptor agonists, primary screen, cell-based (AID 729;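 note: 0% = vehicle low control and 100% = maximal reference agonist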)). Details: S1P2-expressing cell line, agonist reporter read-out; at 4.5 µM; stronger effect = higher value.

| Structure (SMILES) | activation |
| --- | --- |
| CC1(CBr)Cn2c(nc3ccccc3c2=O)S1 (stereo not drawn) | inactive: -4.39% |
| O=P1(Nc2ccccn2)COc2ccccc2OC1 | inactive: -4.06% |
| Clc1n[nH]nc1-c1nn[nH][15n]1 | inactive: -4.35% |
| O=P1(Nc2ncccn2)COc2ccccc2OC1 | inactive: -2.42% |
| Cc1ccc(OCC(=O)OC2CN3CCC2CC3)cc1 (stereo not drawn) | inactive: -3.71% |
| O=P1(Nc2ccc(Br)cn2)COc2ccccc2OC1 | inactive: -6.88% |
| Cc1nn(-c2ccccc2)c2c1P(=O)(N1CCOCC1)N(C)C(c1ccccc1)=N2 (stereo not drawn) | inactive: -2.9% |
| O=[N+]([O-])c1ccc2c(c1)nnn2O | inactive: -0.78% |
| CCOP1(=S)c2c(C)nn(CCC#N)c2N=C(c2ccc(F)cc2)N1C (stereo not drawn) | inactive: -2.1% |
| CCOP1(=S)c2c(C)nn(CCC#N)c2N=C(c2ccccc2F)N1C (stereo not drawn) | inactive: -0.85% |
| Cc1cccc(OCC(=O)OC2CN3CCC2CC3)c1 (stereo not drawn) | inactive: 0.46% |
| O=C(OC1CN2CCC1CC2)C12CC3CC(CC(C3)C1)C2 (stereo not drawn) | inactive: -1.57% |
| ClCCSc1nnc(-c2cccnc2)o1 | inactive: -3.91% |
| CCN(CC)C(=S)SC(NC=O)C(Cl)(Cl)Cl (stereo not drawn) | inactive: -3.47% |
| CCC(C)N(CC(C)C)C(=S)SC(NC(C)=O)C(Cl)(Cl)Cl (stereo not drawn) | inactive: -4.17% |
| COP1(=S)c2c(C)nn(CCC#N)c2N=C(c2ccc(F)cc2)N1C (stereo not drawn) | inactive: -3.01% |
| O=C(COc1ccccc1)OC1CN2CCC1CC2 (stereo not drawn) | inactive: -1.84% |

| Structure (SMILES) | activation |
| --- | --- |
| CC1CCN(C(=O)Oc2c(Cl)cc(Cl)c3cccnc23)CC1 | inactive: 1.06% |
| O=[N+]([O-])c1cccc2n[nH]nc12 | inactive: -3.36% |
| CC(=O)N1C2C3N(C(C)=O)C1C1N(C(C)=O)C(C(N1C(C)=O)N3C(C)=O)N2C(C)=O | inactive: -2.24% |
| CCc1nc2c(n1)c1c(non1O)c1c2no[n+]1[O-] | inactive: -9.99% |
| CCOP(=O)(Nc1ccccc1)OCC | inactive: -3.79% |
| CC(C)CC(=O)NC(Sc1ccc(Cl)cc1)C(Cl)(Cl)Cl (stereo not drawn) | inactive: -4.26% |
| Oc1ccccc1CNc1ccccn1 | inactive: -1.99% |
| Cc1c2non([O-])c-2c(C)[n+](=O)[n+]1[O-] | inactive: 1.69% |
| CN1CCCC(OC(=O)C(c2ccccc2)c2ccccc2)C1 (stereo not drawn) | inactive: -3.37% |
| O=P1(Nc2nc3ccc(Cl)cc3s2)COc2ccccc2O1 (stereo not drawn) | inactive: -3.09% |
| COC(=O)c1cc2c(s1)N=C(c1ccccc1)N(C)P2(=O)N1CCOCC1 (stereo not drawn) | inactive: 0.66% |
| CCC(=O)N1C2C3N(C(=O)CC)C1C1N(C(=O)CC)C(C(N1C(=O)CC)N3C(=O)CC)N2C(=O)CC | inactive: -3.81% |
| CCOC(=O)NC(Sc1ccccc1)C(Cl)(Cl)Cl (stereo not drawn) | inactive: -11.1% |
| O=C(OC1CN2CCC1CC2)c1cccc(Cl)c1 (stereo not drawn) | inactive: -4.38% |
| O=P(Nc1nccs1)(c1ccccc1)c1ccccc1 | inactive: -0.61% |
| c1nnnn1CCn1cnnn1 | inactive: -3.65% |
